Yeast UUG start-1: modulators of start codon recognition fidelity in yeast; activity score, % at 18.7 µM; actives 0.13% (n = 350,000); S. cerevisiae UUG-firefly luciferase reporter, luminescence/redox ratio;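 active = replicate mean at a twofold rise or more, about +100% in these data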;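 note: firefly luciferase made from a UUG start codon reports start codon fidelity; reporter light over untreated wells divided by growth signal over untreated wells; some hits fall short of that in this replicate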
dFosB activator: activators of delta FosB homodimer, primary screen, biochemical, fluorescence polarization, TAMRA-CDK5 oligo, single point. Protein FosB (Mus musculus), P13346. purified delta FosB; percent of positive-control signal above neutral wells. activation, % at 25 µM. hit rate 0.99% among 340,000;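 active = mean activation above about 17%, with every replicate also reaching it, limit read from the data, passing the limit was not always enough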
Dyrk1A ADPGlo: rat Dyrk1A kinase inhibitors, primary screen, biochemical, single point, plate reader; inhibition, % at 12.5 µM; ADP-Glo luminescence, NFATc1 peptide; AID 504441, 2011; Dual specificity tyrosine-phosphorylation-regulated kinase 1A (Rattus norvegicus), Q63470; hit rate 0.43% among 310,000; in the data active = inhibition above about 50%;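 also: plate controls were vehicle with enzyme for no effect and no enzyme for full effect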
CAL PDZ FP-1: untagged CAL PDZ binding inhibitors, primary screen, biochemical, fluorescence polarization, HTS; AID 602252, 2012; Golgi-associated PDZ and coiled-coil motif-containing protein (Homo sapiens), Q9HD26; inhibition, % at 24.9 µM; hit rate 0.92% among 300,000; purified CAL PDZ, TMR-peptide fluorescence polarization, 1 h;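 active = mean inhibition of at least 30% with at least half of replicates also reaching 30%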;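 also: 0% = DMSO neutral control and 100% = excess unlabeled competitor peptide PRC23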
CDK5 p35 inh: inhibitors of human CDK5/p35 kinase, primary screen, biochemical, single concentration; Recombinant CDK5/p35, ADP-Glo luminescence, 60 min; hit rate 0.01% among 330,000; Cyclin-dependent kinase 5 (Homo sapiens) + Cyclin-dependent kinase 5 activator 1 (Homo …; inhibition, % at 10 µM; AID 488839, 2010;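 active = highest replicate inhibition of at least 50% and at least 75% of replicates reaching 50%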;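 also: plate controls were DMSO neutral control for no effect and GW8510 at 10 µM for full effect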
CAL PDZ FP-2: CAL PDZ peptide-binding inhibitors, primary screen, biochemical, fluorescence polarization, Cer-tagged CAL PDZ, HTS; Golgi-associated PDZ and coiled-coil motif-containing protein (Homo sapiens), Q9HD26; purified CAL PDZ, TMR-peptide fluorescence polarization, 1 h; inhibition, % at 20 µM; hit rate 0.02% among 330,000; AID 504414, 2011;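 active = highest replicate inhibition of at least 40%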;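 also: plate controls were DMSO neutral control wells for no effect and unlabeled competitor peptide control wells for full effect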
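Material: tagged CAL PDZ protein CerCALP, purified; buffer or medium: sodium phosphate/NaCl buffer pH 7.4 with TCEP, IgG, Thesit; also added: fluorescent TMR peptide probe; schedule: 1 h incubation at room temperature before polarization reading; technique: fluorescence polarization from S- and P-plane intensities, G-factor corrected; control set: unlabelled peptide and DMSO controls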
Yeast UUG start-2: enhancers of UUG start codon usage in yeast, dose response, S. cerevisiae, UUG firefly luciferase, cherry-pick, set 2. shares compounds with Yeast UUG start-1. AID 652061, 2013. 540 tested, under 10 active. luminescence, 4 h; 100% means double the DMSO signal. activation, % at 38 µM;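 active = signal increase whose fitted curve reaches an absolute level of 40 at a concentration under 10 µM; inactive = activity opposite to the expected increase, or the rest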
The depositor's hits bear a star; i = inactive; . = no result. Most compounds without a hit are left out; they make up all but 1.7% or so of the library.

Start of the listing, in advance (3 entries):
entry | structure | Yeast UUG start-1 | dFosB activator | Dyrk1A ADPGlo | CAL PDZ FP-1 | CDK5 p35 inh | CAL PDZ FP-2 | Yeast UUG start-2
1 | C[C@H](CO)N1C[C@H](C)[C@H](CN(C)C(=O)CN(C)C)Oc2cc(-c3ccccc3)ccc2S1(=O)=O | 35* | . | . | . | . | . | i
2 | CC(=O)NCCCc1nc2ccccc2n1Cc1ccccc1F | 174* | -5 | 8 | 6 | 0 | 0 | -4
3 | C[C@@H]1CCCCO[C@@H](CN(C)S(=O)(=O)c2ccccc2)[C@H](C)CN([C@@H](C)CO)C(=O)c2cc(NS(=O)(=O)c3cccs3)ccc2O1 | -7 | . | . | . | . | . | .

The whole of this part (from the top)
entry | structure | Yeast UUG start-1 | dFosB activator | Dyrk1A ADPGlo | CAL PDZ FP-1 | CDK5 p35 inh | CAL PDZ FP-2 | Yeast UUG start-2
1 | C[C@H](CO)N1C[C@H](C)[C@H](CN(C)C(=O)CN(C)C)Oc2cc(-c3ccccc3)ccc2S1(=O)=O | 35* | . | . | . | . | . | i
2 | CC(=O)NCCCc1nc2ccccc2n1Cc1ccccc1F | 174* | -5 | 8 | 6 | 0 | 0 | -4
3 | C[C@@H]1CCCCO[C@@H](CN(C)S(=O)(=O)c2ccccc2)[C@H](C)CN([C@@H](C)CO)C(=O)c2cc(NS(=O)(=O)c3cccs3)ccc2O1 | -7 | . | . | . | . | . | .
4 | Cc1ccc(C)c(N2C(=N)S/C(=C\c3ccc(-c4ccccc4C(=O)O)o3)C2=O)c1 | 113* | -9 | -3 | -2 | -2 | -1 | -4
5 | CNC[C@@H]1OCCCC[C@@H](C)Oc2ccc(NC(=O)Nc3ccc(C(F)(F)F)cc3)cc2C(=O)N([C@H](C)CO)C[C@H]1C | -6 | . | . | . | . | . | .
6 | CC(C)c1cn(CC[C@@H]2CC[C@H](N)[C@@H](CO)O2)nn1 | 193* | . | . | . | . | . | i
7 | COCc1cn(CC[C@@H]2CC[C@H](NC(=O)CCN3CCCCC3)[C@@H](CO)O2)nn1 | 39* | . | . | . | . | . | i
8 | COCc1cn(CC[C@H]2CC[C@@H](NC(=O)CCN3CCCCC3)[C@H](CO)O2)nn1 | -9 | . | . | . | . | . | .
9 | CCCNC(=O)N[C@@H]1CC[C@@H](CCn2cc(C3CC3)nn2)O[C@H]1CO | 4 | . | . | . | . | . | .
10 | CN(C)CC(=O)N[C@H]1CC[C@H](CCn2cc(CN(C)C)nn2)O[C@H]1CO | 191* | . | . | . | . | . | i

(continued)
entry | structure | Yeast UUG start-1 | dFosB activator | Dyrk1A ADPGlo | CAL PDZ FP-1 | CDK5 p35 inh | CAL PDZ FP-2 | Yeast UUG start-2
11 | CCCNC(=O)N[C@H]1CC[C@H](CCn2cc(C3CC3)nn2)O[C@@H]1CO | 145* | . | . | . | . | . | i
12 | O=[N+]([O-])c1c(NCc2ccco2)ccc2nonc12 | 134* | . | . | . | . | . | 3
13 | O=C1COc2ccccc2N1Cc1ccc(Cl)cc1 | 167* | 6 | 2 | -1 | 1 | 0 | 4
14 | CN1CCN(C(=O)C[C@H]2C=C[C@@H](NC(=O)Cc3ccccn3)[C@@H](CO)O2)CC1 | -10 | . | . | . | . | . | .
15 | NCCCC[C@@H]1NC(=O)[C@H](CCC(=O)O)NC(=O)c2cc([N+](=O)[O-])cc(I)c2SC[C@@H](C(=O)NCC(N)=O)NC1=O | 119* | 3 | 6 | 0 | -1 | 0 | 10
16 | C#CCOCCOCCOCCNc1nc(N2CCN(C(=O)[C@H](CC(N)=O)n3cc(C(N)[C@@H](C)CC)nn3)CC2)nc(N2CCN(C(=O)[C@H](CCCCN)n3cc([C@@H](N)CC(N)=O)nn3)CC2)n1 (some centres not stated) | 8 | 0 | 11 | -4 | 2 | 1 | .
17 | C#CCOCCOCCOCCNc1nc(N2CCN(C(=O)[C@H](CC(N)=O)n3cc(C(N)[C@H](C)CC)nn3)CC2)nc(N2CCN(C(=O)[C@H](CC(N)=O)n3cc(C(N)[C@@H](C)CC)nn3)CC2)n1 (some centres not stated) | 108* | -8 | 1 | -3 | -1 | -2 | -1
18 | Cc1ccc(S(=O)(=O)Nc2ccc3c(c2)CC(=O)N([C@@H](C)CO)C[C@H](C)[C@H](CN(C)CC2CC2)O3)cc1 | 11 | . | . | . | . | . | .
19 | COc1ccccc1OCCNC(=O)c1ccc(NC(=O)CC2SC(N3CCCC3)=NC2=O)cc1 (configuration not stated) | -1 | -5 | 0 | -4 | 1 | -1 | .
20 | COc1ccccc1CCNC(=O)c1ccc(NC(=O)CC2SC(N3CCCCC3)=NC2=O)cc1 (configuration not stated) | 117* | -10 | . | -4 | -4 | 1 | 7

(list continues)
entry | structure | Yeast UUG start-1 | dFosB activator | Dyrk1A ADPGlo | CAL PDZ FP-1 | CDK5 p35 inh | CAL PDZ FP-2 | Yeast UUG start-2
21 | COc1ccc(C(=O)Nc2ccc3c(c2)OC[C@@H](C)NC[C@@H](C)[C@H](OC)CN(C)C3=O)cc1 | -2 | . | . | . | . | . | .
22 | O=C(Cc1ccccc1)N1C[C@H]2[C@@H](c3ccccc31)[C@@H](CO)N2C(=O)C1CCOCC1 | 116* | . | . | . | . | . | i
23 | COC(=O)c1c2oc(c1C(=O)OC)C(=O)N[C@@H](Cc1ccccc1)Cn1cc(nn1)CNC(=O)[C@@H](Cc1ccccc1)NC(=O)N[C@@H](CO)CC2 | 116* | . | . | . | . | . | i
24 | CN(C)CCCNC(=O)C[C@H]1CC[C@@H](NC(=O)Cc2cccnc2)[C@H](CO)O1 | -39 | . | . | . | . | . | .
25 | Cc1ccc(-n2c(C)nn(CC#N)c2=O)cc1 | 346* | -5 | 0 | 4 | 0 | 1 | -1
26 | Cc1nn(CC#N)c(=O)n1-c1ccccc1F | -19 | 0 | 7 | -1 | 3 | -1 | .
27 | COc1ccc(NC(=O)N(C)C[C@H]2Oc3c(NS(=O)(=O)c4ccc(F)cc4)cccc3C(=O)N([C@@H](C)CO)C[C@H]2C)cc1 | 4 | . | . | . | . | . | .
28 | Cc1c(C(=O)OCC(=O)c2ccc3c(c2)OCCO3)oc2ccccc12 | -5 | -5 | -6 | 1 | -1 | -2 | 3
29 | O=C(CN1C(=O)c2ccccc2S1(=O)=O)c1ccc(O)c(O)c1 | 165* | -10 | . | 1 | 1 | -2 | -5
30 | O=C(CN1C(=O)c2ccccc2S1(=O)=O)c1ccc(F)c(F)c1 | -29 | -1 | -6 | -1 | -1 | -1 | .

New compounds follow
entry | structure | Yeast UUG start-1 | dFosB activator | Dyrk1A ADPGlo | CAL PDZ FP-1 | CDK5 p35 inh | CAL PDZ FP-2 | Yeast UUG start-2
31 | C[C@H](CO)N1C[C@H](C)[C@@H](CN(C)C)Oc2cc(C#CC3CCCC3)ccc2S1(=O)=O | 61 | . | . | . | . | . | .
32 | CCCC#Cc1cnc2c(c1)C(=O)N([C@H](C)CO)C[C@@H](C)[C@@H](CN(C)C(=O)Cc1ccncc1)O2 | -8 | . | . | . | . | . | .
33 | Cc1cc(OCCCCNC(C)C)cc(C(C)C)c1 | 229* | -5 | 7 | -2 | 0 | 1 | 8
34 | Cc1cc(OCCOCCNC(C)C)cc(C)c1Cl | -16 | -6 | 16 | -1 | -1 | 0 | .
35 | CC(C)CNC(=O)c1cccc(NC(=O)Cc2ccc(Cl)cc2)c1 | 249* | -2 | 9 | -1 | -1 | 0 | -3
36 | COc1ccc(C(=O)c2cnc[nH]2)cc1OC | -20 | 2 | 15 | 5 | 2 | 0 | .
37 | COc1ccc(C(=O)c2cnc[nH]2)cc1 | 171* | -4 | 24 | . | -5 | 0 | 6
38 | CCOc1ccc(C(=O)NCC(C)NC(=O)c2ccc(OCC)cc2)cc1 (configuration not stated) | 109* | -1 | 2 | -4 | -3 | 0 | 10
39 | CCOc1ccc(C(=O)NCC(C)C)cc1 | 1 | -8 | 6 | 16 | -2 | -2 | .

Only CDK5 p35 inh, for some of the entries so far:
entry | canonical_smiles | CDK5 p35 inh
16 | C#CCOCCOCCOCCNc1nc(N2CCN(C(=O)[C@H](CC(N)=O)n3cc(C(N)[C@@H](C)CC)nn3)CC2)nc(N2CCN(C(=O)[C@H](CCCCN)n3cc([C@@H](N)CC(N)=O)nn3)CC2)n1 (some centres not stated) | 2
17 | C#CCOCCOCCOCCNc1nc(N2CCN(C(=O)[C@H](CC(N)=O)n3cc(C(N)[C@H](C)CC)nn3)CC2)nc(N2CCN(C(=O)[C@H](CC(N)=O)n3cc(C(N)[C@@H](C)CC)nn3)CC2)n1 (some centres not stated) | -1

Source: PubChem (Broad Institute)
